In paper PMC3816687, “Relationships between Cargo, Cell Penetrating Peptidesand Cell Type for Uptake of Non-Covalent Complexes into Live Cells” (Pharmaceuticals, 2013):

Tests used:
HeLa cells = settings: 0.3 × 10^6 intact cells per well, PBS, 37 °C, 5% CO2, samples at 15, 30, 45, 60 min, RP18 HPLC, 220 nm
Experimental: (§1) In a 6-well-plate with 0.3 × 10^6 cells per well the different cell types were cultivated overnight under optimized conditions. Then medium was removed by aspiration (adherent cell) or centrifugation (suspension cells) and washed cells were incubated with CPPs in phosphate buffer solution (PBS). Incubation was performed under the same conditions as the transduction of complexes with the cargo for 1 h at 37 °C in a humidified atmosphere containing 5% CO2. After 15, 30, 45 and 60 min samples of 200 µL were taken and the proteolytic reaction was stopped by addition of 50 µL 37 perc. HCl. After freezing and lyophilization samples were analyzed by analytical high performance liquid chromatography (HPLC), using a RP18 column (Vydac 218TP). In case of MPGβ, for elution a gradient was used from 10% acetonitrile and 90% water, both containing 0.1% trifluoroacetic acid to 60% acetonitrile and 40% water in 50 min. […] The flow rate was 1.0 ml/min and detection was performed at 220 nm.

NIH-3T3 cells = settings: 0.3 × 10^6 intact cells per well, PBS, 37 °C, 5% CO2, samples at 15, 30, 45, 60 min, RP18 HPLC, 220 nm
Experimental: as §1

[1] = system: most of the cells investigated; test: Proteolytic stability of CPPs compared over the cells investigated; format: in vitro ADME; settings: incubation with intact cells up to 60 min, PBS, 37 °C, HPLC
Experimental: as §1

Leishmania tarentolae = test: Cytotoxicity test for Leishmania tarentolae (morphology and motility); format: cell-based; settings: 1 h in PBS with increasing concentrations, changes in morphology and motility, microscope 400-fold
Experimental: Leishmania cells were cultivated as described previously, resuspended in PBS and treated with increasing concentrations of cocktails and CPPs for 1 h. Cytotoxic effects were monitored by changes in morphology and motility observed using a microscope at 400-fold magnification.

Leishmania cells = settings: intact cells; cited from earlier work
Source text: Chosen CPPs have different chemical properties, i.e. distribution of charged, polar and non-polar residues, leading to different amphiphilicity and hydrophobicity. […] Mammalian cell lines can also degrade CPPs.

CC[C@H](C)[C@H](NC(=O)[C@H](CCCCN)NC(=O)[C@@H](NC(=O)[C@H](CCC(N)=O)NC(=O)[C@@H](N)CCCNC(=N)N)[C@@H](C)CC)C(=O)N[C@@H](Cc1c[nH]c2ccccc12)C(=O)N[C@@H](Cc1ccccc1)C(=O)N[C@@H](CCC(N)=O)C(=O)N[C@@H](CC(N)=O)C(=O)N[C@@H](CCCNC(=N)N)C(=O)N[C@@H](CCCNC(=N)N)C(=O)N[C@@H](CCSC)C(=O)N[C@@H](CCCCN)C(=O)N[C@@H](Cc1c[nH]c2ccccc12)C(=O)N[C@@H](CCCCN)C(=O)N[C@@H](CCCCN)C(=O)O [Penetratin (Antennapedia)]
time within which the CPP is cleaved by HeLa cells (HeLa cells): ≤ 60 min | time within which the CPP is cleaved by NIH-3T3 cells (NIH-3T3 cells): ≤ 60 min | relative proteolytic stability among the CPPs [1]: most labile | Cytotoxicity in Leishmania tarentolae (Leishmania tarentolae): ≤ 10 µM | time within which the CPP is fully degraded by Leishmania cells (Leishmania cells): ≤ 60 min
